{"source": "ChEMBL document CHEMBL1121659", "about": "“A nonmetabolized analogue of phenytoin” (J Med Chem, 1981)", "assay": "in vivo", "conditions": "mouse, ip", "data": [{"smiles": "O=C1NC(=O)C(c2ccccc2)(c2ccccc2)N1", "note": "[PHENYTOIN]", "values": [{"measurement": "LD50 at 72 h", "result": 200, "unit": "mg/kg"}]}]}
